Tests used:
Mu-type opioid receptor = Mu-type opioid receptor (Rattus norvegicus, UniProt P33535); assay: Displacement of [3H]diprenorphine from rat mu opioid receptor expressed in CHO cell membranes
[1] = molecular target: Delta-type opioid receptor (Mus musculus, UniProt P32300); assay: Displacement of [3H]diprenorphine from FLAG-tagged mouse delta opioid receptor expressed in CHO cell membranes

The chains behind the UniProt entries cited, without tags or fusion partners.
UniProt P33535, whole entry, looked up: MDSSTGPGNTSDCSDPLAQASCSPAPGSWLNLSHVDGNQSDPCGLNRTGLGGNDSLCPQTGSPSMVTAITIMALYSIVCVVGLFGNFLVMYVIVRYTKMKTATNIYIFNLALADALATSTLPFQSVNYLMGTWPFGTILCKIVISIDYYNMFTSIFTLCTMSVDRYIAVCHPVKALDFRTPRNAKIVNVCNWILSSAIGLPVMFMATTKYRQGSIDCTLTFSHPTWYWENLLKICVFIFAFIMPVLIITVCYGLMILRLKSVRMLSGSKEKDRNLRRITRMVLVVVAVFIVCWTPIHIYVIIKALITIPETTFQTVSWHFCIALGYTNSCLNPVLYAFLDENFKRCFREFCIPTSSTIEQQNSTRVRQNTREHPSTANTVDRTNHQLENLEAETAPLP
UniProt P32300, whole entry, looked up: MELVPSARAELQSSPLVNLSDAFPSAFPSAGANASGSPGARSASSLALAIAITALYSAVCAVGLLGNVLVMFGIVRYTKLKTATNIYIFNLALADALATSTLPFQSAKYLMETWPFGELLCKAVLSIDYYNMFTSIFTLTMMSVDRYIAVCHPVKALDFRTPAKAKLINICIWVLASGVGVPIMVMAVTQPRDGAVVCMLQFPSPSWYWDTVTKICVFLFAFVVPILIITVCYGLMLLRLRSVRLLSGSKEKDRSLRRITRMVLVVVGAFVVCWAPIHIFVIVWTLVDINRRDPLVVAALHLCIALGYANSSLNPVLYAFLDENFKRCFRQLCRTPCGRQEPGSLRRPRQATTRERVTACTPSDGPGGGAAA

COC(=O)[C@@H]1C[C@H](O)C(=O)[C@H]2[C@@]1(C)CC[C@H]1C(=O)O[C@H](c3ccoc3)C[C@]21C
Ki (Mu-type opioid receptor): > 1 µM
Ki [1]: > 1 µM
